Results reported in patent US11203601B2, “Tricyclic compounds as glycogen synthase kinase 3 (GSK3) inhibitors and uses thereof” (The Broad Institute, Inc., priority 2017, dated 2021).
pIC50: −log10 of the molar value.

Chains of the proteins cited; added tags and fusions are not shown. Lines headed by an entry give the natural chain unless they say otherwise; changes in a name come on top.
UniProt P49840: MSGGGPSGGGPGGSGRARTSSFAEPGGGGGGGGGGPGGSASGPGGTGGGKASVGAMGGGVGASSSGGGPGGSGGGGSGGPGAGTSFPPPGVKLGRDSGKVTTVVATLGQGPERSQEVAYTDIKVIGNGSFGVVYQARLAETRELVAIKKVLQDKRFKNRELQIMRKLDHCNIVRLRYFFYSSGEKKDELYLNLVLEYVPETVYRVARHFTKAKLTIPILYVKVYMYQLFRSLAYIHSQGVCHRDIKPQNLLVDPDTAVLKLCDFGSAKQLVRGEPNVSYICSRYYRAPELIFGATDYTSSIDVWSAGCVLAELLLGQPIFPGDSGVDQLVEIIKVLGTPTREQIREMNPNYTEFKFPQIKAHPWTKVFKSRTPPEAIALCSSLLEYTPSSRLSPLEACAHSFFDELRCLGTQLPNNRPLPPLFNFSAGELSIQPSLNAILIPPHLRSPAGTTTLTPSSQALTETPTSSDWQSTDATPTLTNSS

Target: GSK3α (Homo sapiens (Human), UniProt P49840)
Experiment: Mobility shift microfluidics assay
Type: biochemical

Question: `CC1(C)CC(=O)C2=C(C1)Nc1n[nH]cc1[C@]2(C)c1ccccc1` [drawing 169] was tested. Which pIC50 did it give?
Answer: 7.38
